## AlphaSeq binding of Ab-95 light chain variants to a spike HR2 peptide

Antigen: PDVDLGDISGINAS, a 14-residue peptide of the SARS-CoV-2 spike HR2 region.

The variants keep the heavy chain, the linker and the frameworks of Ab-95 (scFv order VH, a 15-residue (Gly4Ser)3 linker, VL).
VH: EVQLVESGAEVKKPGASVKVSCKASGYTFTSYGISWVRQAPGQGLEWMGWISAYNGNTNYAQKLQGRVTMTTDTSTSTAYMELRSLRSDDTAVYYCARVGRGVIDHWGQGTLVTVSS
VL: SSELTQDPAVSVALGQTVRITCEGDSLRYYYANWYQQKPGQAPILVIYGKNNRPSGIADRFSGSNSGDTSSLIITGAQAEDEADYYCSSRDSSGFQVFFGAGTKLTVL

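Phage display of a naive human antibody library on the peptide gave the parent. Variants in AAYL52 differ from the parent at up to three CDR positions; double and triple changes were sampled at random. In AlphaSeq, yeast of one mating type display the scFv and yeast of the other type display the target. The frequency of each diploid, read from paired DNA barcodes, reflects how well the two displayed proteins bind. Scores were corrected for input abundance and mapped to Kd with protein pairs of known affinity run in the same pool. There are three technical replicates.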

Each variant is given by its three light chain CDRs, as the data file delimits them; those of the parent are EGDSLRYYYAN, GKNNRPS, SSRDSSGFQVF.
Affinities are written as log10 Kd with Kd in nM; a lower number is a better binder.
Where no diploid with the target was found in that replicate, the entry reads "ND": below detection, most likely a poor binder, though not proof of it.
Parent in this assay: reference entry 2.31, copy in this library 2.25.
As a blank, each scFv also met three strains without target: over library AAYL52, 28% of these pairings were detected, typically at 3.91 and seldom below 2.90. The control count says in how many pairings with the empty strains this scFv gave a signal, with their mean in brackets.

{"CDR-L1": "EGDSLRYNVAN", "CDR-L2": "GKNNRPS", "CDR-L3": "SSEDSSGFQVF", "log10 Kd (nM) by replicate": "2.52 ND 3.56", "empty controls": "3 of 9 (3.23)"}
{"CDR-L1": "EGDSARCYYAN", "CDR-L2": "GKNNRPS", "CDR-L3": "SSRDSSGFQVF", "log10 Kd (nM) by replicate": "ND ND 3.41", "empty controls": "2 of 9 (3.97)"}
{"CDR-L1": "EGDSLRQYYAN", "CDR-L2": "GKNNRPS", "CDR-L3": "SSRDSSGEQVF", "log10 Kd (nM) by replicate": "2.44 2.58 2.32", "empty controls": "3 of 9 (4.22)"}
{"CDR-L1": "EGDSLRYKYAN", "CDR-L2": "GKNTRPS", "CDR-L3": "SSRDSSGFQLF", "log10 Kd (nM) by replicate": "1.47 1.55 1.13", "empty controls": "4 of 9 (4.62)"}
{"CDR-L1": "EGDSLRYYYKN", "CDR-L2": "GKNNRPS", "CDR-L3": "SSPESSGFQVF", "log10 Kd (nM) by replicate": "ND ND ND", "empty controls": "1 of 9 (4.40)"}
{"CDR-L1": "NGDSPREYYAN", "CDR-L2": "GKNNRPS", "CDR-L3": "SSRDSSGFQVF", "log10 Kd (nM) by replicate": "ND 3.87 4.50", "empty controls": "2 of 9 (3.75)"}
{"CDR-L1": "EGDSLRYNYAN", "CDR-L2": "GANNRPI", "CDR-L3": "SSRDSSGFQVF", "log10 Kd (nM) by replicate": "1.01 0.87 0.24", "empty controls": "2 of 9 (4.41)"}
{"CDR-L1": "DGDSLRYYYAN", "CDR-L2": "GKNNRPS", "CDR-L3": "SSRDSSGFDVF", "log10 Kd (nM) by replicate": "2.56 2.77 2.44", "empty controls": "6 of 9 (3.90)"}
{"CDR-L1": "EGDSLRYYYHN", "CDR-L2": "AKNNRPS", "CDR-L3": "ESRDSSGFQVF", "log10 Kd (nM) by replicate": "ND ND ND", "empty controls": "1 of 9 (4.59)"}
{"CDR-L1": "EGNSLRYYYAN", "CDR-L2": "GKNNRPV", "CDR-L3": "SSLDSSGFQVF", "log10 Kd (nM) by replicate": "ND ND ND", "empty controls": "0 of 9"}
{"CDR-L1": "EGDSLRAYYAN", "CDR-L2": "GYNNRPS", "CDR-L3": "SSRDSSQFQVF", "log10 Kd (nM) by replicate": "2.69 4.68 ND", "empty controls": "1 of 9 (3.91)"}
{"CDR-L1": "EGDSLREYYAN", "CDR-L2": "GKNNRPI", "CDR-L3": "SSRDSLGFQVF", "log10 Kd (nM) by replicate": "ND ND 4.22", "empty controls": "2 of 9 (4.24)"}
{"CDR-L1": "EGDSLRQYYPN", "CDR-L2": "GKNNRPS", "CDR-L3": "SQRDSSGFQVF", "log10 Kd (nM) by replicate": "1.64 1.66 1.25", "empty controls": "3 of 9 (4.31)"}
{"CDR-L1": "EGDSLRYYYAN", "CDR-L2": "GKNNRPS", "CDR-L3": "SSRWKHGFQVF", "log10 Kd (nM) by replicate": "2.29 2.54 1.95", "empty controls": "1 of 9 (3.51)"}
{"CDR-L1": "KGDSLRYYYAN", "CDR-L2": "GKNHRPS", "CDR-L3": "SSRDSSGFQPF", "log10 Kd (nM) by replicate": "ND 5.47 3.58", "empty controls": "5 of 9 (3.91)"}
{"CDR-L1": "EGDSLRYYLAN", "CDR-L2": "VKNNMPS", "CDR-L3": "SSRDSSGFQVF", "log10 Kd (nM) by replicate": "ND ND ND", "empty controls": "2 of 9 (3.79)"}
{"CDR-L1": "ENDSLRYYYAN", "CDR-L2": "GKNFRPS", "CDR-L3": "SSRDSSGFQVF", "log10 Kd (nM) by replicate": "ND ND ND", "empty controls": "2 of 9 (4.30)"}
{"CDR-L1": "EGDILRYYYAN", "CDR-L2": "GKNNRPS", "CDR-L3": "SSRDCSGFPVF", "log10 Kd (nM) by replicate": "ND ND ND", "empty controls": "0 of 9"}
{"CDR-L1": "EGDSLRYYYAN", "CDR-L2": "GINNLPH", "CDR-L3": "SSRDSSGFQVF", "log10 Kd (nM) by replicate": "4.50 3.17 4.42", "empty controls": "4 of 9 (3.48)"}
{"CDR-L1": "EGDSLRYYNAN", "CDR-L2": "GKNNCPS", "CDR-L3": "SSRDSSQFQVF", "log10 Kd (nM) by replicate": "ND ND ND", "empty controls": "2 of 9 (3.31)"}
{"CDR-L1": "EGDSLRYYYAN", "CDR-L2": "GCNNRPS", "CDR-L3": "SSRDSSGFPWF", "log10 Kd (nM) by replicate": "3.88 3.56 3.99", "empty controls": "0 of 9"}
{"CDR-L1": "EGDSLRYYYAK", "CDR-L2": "GKNNTPP", "CDR-L3": "SSRDSSGFQVF", "log10 Kd (nM) by replicate": "5.43 4.74 4.33", "empty controls": "1 of 9 (5.65)"}
{"CDR-L1": "ELHSLRYYYAN", "CDR-L2": "GKMNRPS", "CDR-L3": "SSRDSSGFQVF", "log10 Kd (nM) by replicate": "ND 4.27 ND", "empty controls": "2 of 9 (3.18)"}
{"CDR-L1": "EGDSLVYYYAN", "CDR-L2": "SGNNRPS", "CDR-L3": "SSRDSSGFQVF", "log10 Kd (nM) by replicate": "2.75 3.12 3.81", "empty controls": "6 of 9 (3.61)"}
{"CDR-L1": "EGDSLRYYYSN", "CDR-L2": "GKNNRNS", "CDR-L3": "SSRDSSGFQPF", "log10 Kd (nM) by replicate": "ND 4.87 ND", "empty controls": "4 of 9 (4.43)"}
{"CDR-L1": "EGGSLRYYYAN", "CDR-L2": "GKNNNPS", "CDR-L3": "FSRDSSGFQVF", "log10 Kd (nM) by replicate": "ND ND ND", "empty controls": "1 of 9 (3.31)"}
{"CDR-L1": "EGDSLRYYYAN", "CDR-L2": "KKNNRAS", "CDR-L3": "SSRDSSGFQVF", "log10 Kd (nM) by replicate": "ND ND 4.37", "empty controls": "6 of 9 (4.29)"}
{"CDR-L1": "EGDSLRYYYAN", "CDR-L2": "GKFNRPS", "CDR-L3": "TSRDSSGFQVR", "log10 Kd (nM) by replicate": "4.20 ND 4.46", "empty controls": "5 of 9 (3.66)"}
{"CDR-L1": "EGTSLRYYYGN", "CDR-L2": "GKNNRPS", "CDR-L3": "LSRDSSGFQVF", "log10 Kd (nM) by replicate": "4.14 2.85 4.33", "empty controls": "3 of 9 (4.14)"}
{"CDR-L1": "EGDWLRYYYAN", "CDR-L2": "GKNNRPS", "CDR-L3": "RWRDSSGFQVF", "log10 Kd (nM) by replicate": "4.52 ND ND", "empty controls": "2 of 9 (4.51)"}

Top 5 of the variants detected in all replicates, tightest first:

CDR-L1	CDR-L2	CDR-L3	log10 Kd (nM) by replicate	empty controls
EGDSLRYNYAN	GANNRPI	SSRDSSGFQVF	1.01 0.87 0.24	2 of 9 (4.41)
EGDSLRYKYAN	GKNTRPS	SSRDSSGFQLF	1.47 1.55 1.13	4 of 9 (4.62)
EGDSLRQYYPN	GKNNRPS	SQRDSSGFQVF	1.64 1.66 1.25	3 of 9 (4.31)
EGDSLRYYYAN	GKNNRPS	SSRWKHGFQVF	2.29 2.54 1.95	1 of 9 (3.51)
EGDSLRQYYAN	GKNNRPS	SSRDSSGEQVF	2.44 2.58 2.32	3 of 9 (4.22)

Source: Engelhart et al. 2022 (doi:10.1038/s41597-022-01779-4), MIT Lincoln Laboratory and A-Alpha Bio; data file from the FLAb repository.